Reference: PubChem BioAssay AID1875 (Broad Institute, 2009)
The list shows a part of the results. Activity calls are given as the source filed them.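 How the source made its calls: active means lowest replicate activity score at least 50, where 100 means six control SD above control mean; inconclusive means lowest score under 50 but half or more replicates reach 50; inactive means the rest.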

Experiment: perturbers of mRNA poly(A) processing – luminescence, S. cerevisiae, primary screen (AID 1875);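 further: yeast exposed to compound for 9 h at 30 °C; higher score means more reporter readthrough which indicates perturbed polyadenylation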
Settings: S. cerevisiae SKY197-pL101 polyadenylation reporter, beta-gal luminescence; at 12 µM; stronger effect = higher value; efflux-impaired pdr1/pdr3 knockout yeast; score 100 = 6 SD above DMSO

Compound | activity score
CCOP(=O)(Nc1ccc(C)cn1)OCC | inactive: -12.6%
CN(CCCl)Cc1cc(Cl)c(NC2=NCCN2)c(Cl)c1 | inactive: 0.167%
CCC1=CC2Cc3nc4ccc(Cl)cc4c(N)c3C(C1)C2 (stereo not drawn) | inactive: 8.12%
O=P1(Nc2ccccn2)COc2ccccc2OC1 | inactive: 4.09%
O=[N+]([O-])c1cc([N+](=O)[O-])c(-n2nnc3ccccc32)c([N+](=O)[O-])c1 | inactive: -5.99%
CCOP(=O)(NC(=NC(C)c1ccccc1)NC(C)c1ccccc1)OCC (stereo not drawn) | inactive: -9.54%
Clc1n[nH]nc1-c1nn[nH][15n]1 | inactive: 12.1%
COc1ccccc1CNC(=O)COC(=O)C(O)(c1ccccc1)c1ccccc1 | inactive: -6.96%
O=[N+]([O-])c1cc([N+](=O)[O-])c(-c2cnn(-c3ccccc3)c2)c([N+](=O)[O-])c1 | inactive: -46.2%
O=[As](O)(c1ccccc1Br)c1ccccc1Br | inactive: 1.89%
CC1(CBr)Cn2c(nc3ccccc3c2=O)S1 (stereo not drawn) | inactive: -4.82%
CN(C(=O)Cc1ccc(Cl)c(Cl)c1)[C@@H]1CCCC[C@H]1N1CCCC1 | inactive: -5.47%
CC(C)/C=N\N=C(\N)N[N+](=O)[O-] | inactive: 10.7%
COc1cc(C2NCCC3(OCCO3)C2(C)C)cc(OC)c1OC.O=[N+]([O-])c1cc([N+](=O)[O-])c(O)c([N+](=O)[O-])c1 (stereo not drawn) | inactive: 2.61%
Cc1nn(-c2ccccc2)c2c1P(=O)(N1CCOCC1)N(C)C(c1ccccc1)=N2 (stereo not drawn) | inactive: -4.3%
Cc1ccc(C(=O)OC2CN3CCC2CC3)cc1 (stereo not drawn) | inactive: 12.3%
CC1CCC(C(C)C)C(OP(=O)(Nc2ccccn2)c2ccccc2)C1 (stereo not drawn) | inactive: -0.394%
O=C(/C=C/c1ccccc1)OC1CN2CCC1CC2 (stereo not drawn) | inactive: 2.54%
CN(C)C1(CNC(=O)c2ccc(S(C)(=O)=O)cc2)CCCCC1 | inactive: -4.89%
O=[N+]([O-])c1cc([N+](=O)[O-])c(Nc2nnnn2CCO)c([N+](=O)[O-])c1 | inactive: 3.45%
CCOC(=O)C(CC)C1=NC(C)(C)Cc2ccccc21.O=[N+]([O-])c1cc([N+](=O)[O-])c(O)c([N+](=O)[O-])c1 (stereo not drawn) | inactive: -23.3%
CN1CCCCC1COC(=O)C1(O)c2ccccc2CCc2ccccc21 (stereo not drawn) | inactive: 3.07%
COc1ccccc1OP(C)(=O)Nc1c(C)cccc1C (stereo not drawn) | inactive: -1.49%
O=P1(Nc2ncccn2)COc2ccccc2OC1 | inactive: 5.53%
Cc1ccc(OCC(=O)OC2CN3CCC2CC3)cc1 (stereo not drawn) | inactive: 3.93%

Compound | activity score
O=[As](O)(c1cccs1)c1cccs1 | inactive: -15.2%
CCCOc1ccc(NP(C)(=O)Oc2ccc(Cl)cc2)cc1 (stereo not drawn) | inactive: 4.6%
Nc1cccc([As](=O)(O)c2ccccc2)c1 | inactive: -0.576%
CP(=O)(Nc1ccc(SC(F)(F)F)cc1)Oc1ccccc1 (stereo not drawn) | inactive: 0.254%
CS(=O)(=O)c1cc([N+](=O)[O-])c2no[n+]([O-])c2c1 | inactive: 1.92%
O=C(O)c1cccc(Nc2c([N+](=O)[O-])cc([N+](=O)[O-])cc2[N+](=O)[O-])c1 | inactive: -4.84%
CCOP1(=S)c2c(C)nn(CCC#N)c2N=C(c2ccccc2F)N1C (stereo not drawn) | inactive: 1.88%
O=P(Nc1nccs1)(Oc1ccccc1)Oc1ccccc1 | inactive: 12.1%
O=P(Nc1nccs1)(c1ccccc1)c1nc2ccccc2s1 (stereo not drawn) | inactive: -4.67%
O=C(O)COc1ccc([As](=O)(O)O)cc1[N+](=O)[O-] | inactive: 16.6%
Nc1ccccc1[As](=O)(O)c1ccccc1 | inactive: 4.32%
NC(=O)Nc1ccc([As](=O)(O)O)cc1 | inactive: 12.9%
O=[N+]([O-])c1ccc2c(c1)nnn2O | inactive: -14.2%
CN(C)C(=O)c1cc([N+](=O)[O-])cc2c1-c1c(cc([N+](=O)[O-])cc1[N+](=O)[O-])C2=O | inactive: -22.4%
CC1=NCCc2c1[nH]c1ccccc21.O=[N+]([O-])c1cc([N+](=O)[O-])c(O)c([N+](=O)[O-])c1 | inactive: 10.4%
CN(C(=O)Cc1ccc(Cl)c(Cl)c1)[C@H]1CC[C@@]2(CCCO2)C[C@@H]1N1CCCC1 | inactive: 3.09%
N#CCCN(C(=O)COC(=O)C(O)(c1ccccc1)c1ccccc1)c1ccc(F)cc1 | inactive: 4.64%
CCOP1(=S)c2c(C)nn(CCC#N)c2N=C(c2ccc(F)cc2)N1C (stereo not drawn) | inactive: -4.14%
CN(C(=O)Cc1ccccc1)[C@@H]1CC[C@]2(CCCO2)C[C@H]1N1CCCC1 | inactive: -3.6%
O=[As](O)(O)c1cccnc1 | inactive: 30.9%
COc1cc(C(=O)NCC2(N3CCOCC3)CCCCC2)cc(Cl)c1OC(C)C | inactive: 8.65%
COc1ccccc1OP(C)(=O)Nc1cccc(Br)c1 (stereo not drawn) | inactive: 11.5%
CS(=O)(=O)c1ccc(Cl)c(NC(=O)COC(=O)C(O)(c2ccccc2)c2ccccc2)c1 | inactive: -2.82%
O=C(OC1CN2CCC1CC2)c1ccc(Cl)cc1 (stereo not drawn) | inactive: 4.5%
CCOC(=O)c1ccc(NP(C)(=O)Oc2cc(C)cc(C)c2)cc1 (stereo not drawn) | inactive: -3.53%

Compound | activity score
Cc1cccc(OCC(=O)OC2CN3CCC2CC3)c1 (stereo not drawn) | inactive: -7.51%
O=[As](O)(c1cccc(O)c1)c1cccc(O)c1 | inactive: -4.69%
Cc1cc(C)cc(OP(C)(=O)Nc2ccc(C)cc2C)c1 (stereo not drawn) | inactive: 3.31%
Cc1ccc(C)c(NP(C)(=O)Oc2ccccc2)c1 (stereo not drawn) | inactive: -12.4%
CCCOP(=S)(Nc1nc(N)cc(=O)[nH]1)OCCC | inactive: 6.55%
Cc1cc(C)cc(OP(C)(=O)Nc2ccccn2)c1 (stereo not drawn) | inactive: -3.45%
CP(=O)(Nc1cccc(Br)c1)Oc1ccccc1 (stereo not drawn) | inactive: -13.7%
Cc1ccc(NCCc2c([N+](=O)[O-])cc([N+](=O)[O-])cc2[N+](=O)[O-])cc1 | inactive: -31.6%
Nc1cccc2c([As](=O)(O)O)cccc12 | inactive: -6.83%
CCOP(=O)(Nc1cccc2ccccc12)OCC | inactive: -2.47%
O=C(OC1CN2CCC1CC2)C12CC3CC(CC(C3)C1)C2 (stereo not drawn) | inactive: 10.9%
Cc1cc(=O)[nH]c(N[N+](=O)[O-])n1 | inactive: 3.92%
CCN(CC)CCCOC(=O)C(O)(c1ccccc1)c1ccccc1 | inactive: -0.909%
Cc1c2c(nc3ccccc13)SC(C(Cl)Cl)C2 (stereo not drawn) | inactive: -13.7%
COc1ccc2nc(NP(=O)(c3ccccc3)c3ccccc3)sc2c1 | inactive: 4.6%
COc1cc(I)ccc1[As](=O)(O)O | inactive: -6.27%
COc1ccc(N/C(=N/P(=O)(N2CCOCC2)N2CCOCC2)N2CCOCC2)cc1 | inactive: -6.39%
O=[As](O)(c1ccc(O)cc1)c1ccccc1O | inactive: 17.7%
C[As](=O)(O)c1cccc(C(=O)O)c1 | inactive: -1.05%
O=[N+]([O-])c1cc([N+](=O)[O-])c(Nc2cccnc2)c([N+](=O)[O-])c1 | inactive: -0.376%
O=[N+]([O-])c1ccc2c(c1)C=Nc1ccccc1O2 | inactive: 8.32%
Cc1ccc2nc3c(c(C)c2c1)CC(C(Cl)Cl)S3 (stereo not drawn) | inactive: -47.2%
Cc1ccc(OP(=O)(Nc2ccc([N+](=O)[O-])cn2)Oc2ccc(C)cc2)cc1 | inactive: -2.22%
CC(C)(C)c1ccc(OP(C)(=O)Nc2ccc(SC(F)(F)F)cc2)cc1 (stereo not drawn) | inactive: 14.5%
Cc1cccc(C)c1OP(C)(N)=O (stereo not drawn) | inactive: -9.63%

Compound | activity score
COc1ccccc1OP(C)(=O)Nc1ccc(C)cc1 (stereo not drawn) | inactive: 2.92%
Cc1ccc(NP(C)(=O)Oc2ccccc2)c(C)c1 (stereo not drawn) | inactive: -5.97%
CC(C)c1ccc(OP(=O)(Nc2ccccn2)Oc2ccccc2F)cc1 (stereo not drawn) | inactive: 38.3%
CCOC(=O)c1ccc(NP(C)(=O)Oc2ccccc2)cc1 (stereo not drawn) | inactive: -7.22%
ClCCSc1nnc(-c2cccnc2)o1 | inactive: 26%
Cc1cc(C)cc(OP(C)(N)=O)c1 (stereo not drawn) | inactive: 21.4%
CC(C)NC(=O)NP(=O)(Oc1ccccc1)Oc1ccccc1 | inactive: 16.8%
COc1ccccc1OP(C)(=O)Nc1cc(Cl)ccc1C (stereo not drawn) | inactive: 7.85%
CCN(CC)C(=S)SC(NC=O)C(Cl)(Cl)Cl (stereo not drawn) | inactive: 16.5%
COc1ccc(OP(C)(=O)Nc2cccc(F)c2)cc1 (stereo not drawn) | inactive: 21.8%
O=[N+]([O-])c1cc([N+](=O)[O-])c(-c2ccn[nH]2)s1 | inactive: -23.8%
CCOC(=O)Nc1ccc([As](=O)(O)O)c(O)c1 | inactive: -17.7%
CCCCOc1ccc(C(=O)NCC2(N3CCCCC3)CCCCC2)cc1OC | inactive: -16.4%
Cc1cc(SC(NC(=O)c2ccccc2)C(Cl)(Cl)Cl)nc(C(C)C)n1 (stereo not drawn) | inactive: -23.7%
CCOC(=O)Nc1cccc([As](=O)(O)O)c1 | inactive: 13.3%
CP(=S)(Nn1cnnc1)Oc1ccccc1 (stereo not drawn) | inactive: 12.6%
CP(=O)(Nc1ccccc1Br)Oc1ccccc1 (stereo not drawn) | inactive: -2.34%
O=[N+]([O-])c1ccc(Nc2ccc(Oc3ccc([N+](=O)[O-])cc3[N+](=O)[O-])cc2)c([N+](=O)[O-])c1 | inactive: 16.2%
Cc1cc(SC(NC=O)C(Cl)(Cl)Cl)ncn1 (stereo not drawn) | inactive: -20%
O=P(Nc1ccccn1)(c1cccc2ccccc12)c1cccc2ccccc12 | inactive: -3.31%
COc1ccccc1OP(C)(=O)Nc1ccccc1 (stereo not drawn) | inactive: -7.19%
COP1(=S)c2c(C)nn(CCC#N)c2N=C(c2ccc(F)cc2)N1C (stereo not drawn) | inactive: -11.8%
CP(=O)(Nc1ccc(SC(F)(F)F)cc1)Oc1ccc(Cl)cc1 (stereo not drawn) | inactive: -22.5%
